Molecular target: Influenza A H1N1 (A/California/04/2009) Neuraminidase/NA (Influenza A virus (A/California/04/2009(H1N1)), UniProt C3W5S3)
Assay: biochemical

CC(=O)N[C@H]1[C@H]([C@H](O)[C@H](O)CO)OC(C(=O)O)=C[C@@H]1N=C(N)N [Zanamivir, zanamivir, reference compound]
IC50: 1 nM
